Source: article PMC12037037 (Proceedings of the National Academy of Sciences of the …, 2025)

Sequences of proteins named here, by UniProt entry; tags and fusion partners are left off. A line that says so, or that is headed by a name, gives the form on record, which may keep a tag or linker.
UniProt P28223, with tags, fused parts or gaps: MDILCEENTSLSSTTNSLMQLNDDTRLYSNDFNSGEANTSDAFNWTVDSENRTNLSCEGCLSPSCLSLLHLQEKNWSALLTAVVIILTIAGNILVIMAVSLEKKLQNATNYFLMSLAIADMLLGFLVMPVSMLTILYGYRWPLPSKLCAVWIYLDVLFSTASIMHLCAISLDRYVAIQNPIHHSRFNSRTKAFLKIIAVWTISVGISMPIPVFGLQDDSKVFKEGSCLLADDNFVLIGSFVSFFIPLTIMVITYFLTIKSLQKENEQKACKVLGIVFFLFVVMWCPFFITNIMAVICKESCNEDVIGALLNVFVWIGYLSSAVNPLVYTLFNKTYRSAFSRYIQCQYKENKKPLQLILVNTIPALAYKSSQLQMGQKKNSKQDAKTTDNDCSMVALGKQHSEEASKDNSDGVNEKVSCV
UniProt P28223, whole entry: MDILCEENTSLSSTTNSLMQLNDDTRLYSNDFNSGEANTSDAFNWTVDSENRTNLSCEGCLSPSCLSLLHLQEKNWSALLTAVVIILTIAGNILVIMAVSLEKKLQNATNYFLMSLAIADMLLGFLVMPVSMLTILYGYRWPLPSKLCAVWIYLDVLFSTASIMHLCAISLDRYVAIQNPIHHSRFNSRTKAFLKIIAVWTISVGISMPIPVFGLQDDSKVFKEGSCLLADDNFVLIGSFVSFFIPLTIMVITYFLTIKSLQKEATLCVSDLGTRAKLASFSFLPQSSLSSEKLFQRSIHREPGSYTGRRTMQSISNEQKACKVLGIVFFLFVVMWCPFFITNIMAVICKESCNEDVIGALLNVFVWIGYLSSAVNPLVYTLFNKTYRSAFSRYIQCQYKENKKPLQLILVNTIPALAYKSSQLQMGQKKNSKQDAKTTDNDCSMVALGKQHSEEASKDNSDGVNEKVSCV
UniProt P28223, with tags, fused parts or gaps S242A: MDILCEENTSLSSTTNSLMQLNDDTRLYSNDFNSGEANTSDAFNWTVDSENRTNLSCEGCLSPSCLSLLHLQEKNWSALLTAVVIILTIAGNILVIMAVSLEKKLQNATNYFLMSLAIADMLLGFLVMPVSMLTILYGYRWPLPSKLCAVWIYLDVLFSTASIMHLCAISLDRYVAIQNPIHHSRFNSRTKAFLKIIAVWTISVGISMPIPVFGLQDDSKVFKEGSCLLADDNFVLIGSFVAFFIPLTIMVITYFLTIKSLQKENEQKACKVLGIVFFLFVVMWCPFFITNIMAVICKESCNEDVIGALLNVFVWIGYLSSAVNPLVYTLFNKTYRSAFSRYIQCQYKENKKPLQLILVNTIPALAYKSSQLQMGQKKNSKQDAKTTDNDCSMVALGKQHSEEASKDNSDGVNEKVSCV

How the values were obtained:
[1] = molecular target: wild type human 5-HT2A receptor (psychLight2, PSYLI2 cells) (Homo sapiens, UniProt P28223); experiment: PsychLight assay, wild type; assay type: cell-based; conditions: read-out: psychLight (WT): EMax
[2] = molecular target: T1, 5-HT2A receptors (Gq activation) (Homo sapiens, UniProt P28223); experiment: BRET-based assay of Gq activation; assay type: cell-based; conditions: read-out: Gq Activation: EMax
T1 construct: expressed in transfected cells; host or cells: HEK293T (transient)

[3] = system: cultured rat embryonic cortical neurons; experiment: Neuritogenesis assay (Sholl analysis, DIV6); assay type: cell-based
[4] = molecular target: psychLight S242A^5.46 (murinized variant) (Homo sapiens, UniProt P28223, S242A); experiment: PsychLight assay, S242A^5.46 mutant; assay type: cell-based; conditions: read-out: psychLight (S242A^5.46): EMax
male C57BL/6J mice = experiment: Head-twitch antagonism of an LSD dose response (Transpharmation); assay type: in vivo; conditions: LSD 0.03 mg/kg IP, -JRT PreTx; mean ± SEM

`CCN(CC)C(=O)[C@@H]1C=C2c3cccc4[nH]cc(c34)C[C@H]2N(C)C1` [LSD, lysergic acid diethylamide] was tested, and the Emax [1] was 44%, the Emax [2] was 63% and the “Area under the curves of the Sholl plots (Figure S8D)” value [3] was 1.144 ± 0.0533. The “Number of primary dendrites (Figure S8B)” value [3] was 8.063 ± 0.3835, the Emax [4] was 28% and the “Head-twitch response over 20 min (Figure S9)” value (male C57BL/6J mice) was 11.1 ± 1.32.
